The chains behind the UniProt entries cited, without tags or fusion partners. Where a name states a change or a piece, a line headed by the entry shows the natural chain unless it says otherwise.
UniProt Q86SK9: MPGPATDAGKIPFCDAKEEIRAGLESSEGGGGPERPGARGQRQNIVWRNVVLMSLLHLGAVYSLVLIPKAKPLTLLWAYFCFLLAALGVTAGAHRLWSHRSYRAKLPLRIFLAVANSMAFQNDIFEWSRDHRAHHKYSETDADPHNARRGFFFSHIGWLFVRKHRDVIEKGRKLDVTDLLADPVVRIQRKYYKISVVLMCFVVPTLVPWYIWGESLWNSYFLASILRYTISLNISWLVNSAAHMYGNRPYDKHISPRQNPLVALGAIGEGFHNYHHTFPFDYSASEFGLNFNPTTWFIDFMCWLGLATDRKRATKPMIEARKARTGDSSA
UniProt O00767: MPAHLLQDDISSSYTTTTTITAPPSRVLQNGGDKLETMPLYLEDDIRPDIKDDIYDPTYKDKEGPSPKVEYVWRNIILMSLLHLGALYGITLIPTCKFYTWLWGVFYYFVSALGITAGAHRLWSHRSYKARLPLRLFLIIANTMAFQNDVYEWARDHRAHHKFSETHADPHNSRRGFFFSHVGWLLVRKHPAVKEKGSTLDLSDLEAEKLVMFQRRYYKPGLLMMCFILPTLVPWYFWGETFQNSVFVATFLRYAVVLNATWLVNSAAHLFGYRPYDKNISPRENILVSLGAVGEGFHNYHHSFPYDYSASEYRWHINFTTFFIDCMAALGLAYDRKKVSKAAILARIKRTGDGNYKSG

The first assay concerns the target human SCD5 (Homo sapiens (Human), UniProt Q86SK9). Kind of assay: Yeast growth assay, strain expressing human SCD5 as the sole desaturase (reduced growth as surrogate for SCD inhibition). Format: cell-based. Conditions: yeast with OLE1 deleted expressing human SCD5 from a plasmid; growth read as OD600 after 40 h at 30° C.; top drug concentration 33.3 μM. As to the method: (§1) Strains expressing SCD1 or SCD5 as the sole desaturase, the human SCD1 and SCD5 genes were used to evaluate inhibition of SCD1/SCD5 using reduced growth as a surrogate for SCD inhibition. These yeast strains express human SCD1 or SCD5 from a plasmid harbored in a strain in which the yeast OLE1 gene is deleted.
(§2) All compound profiling experiments were performed using the same basic protocol. Yeast were cultured using standard techniques in complete synthetic media lacking uracil and containing yeast nitrogen base supplemented with 2% (w/v) glucose (SD-Ura) Starter cultures were inoculated in 3 mL SD-Ura media containing 0.01% tween and 0.2 mM palmitoleic and oleic acid. Cultures were incubated overnight in a 30° C. shaker incubator (225 rpm). Saturated morning cultures were centrifuged, washed in SD-Ura media lacking TWEEN-20 and fatty acids, and then diluted 1:20 in fresh SD-Ura media also lacking TWEEN-20 and fatty acids.
Compound administration was performed in two separate steps. First, 15 μL of SD-Ura was dispensed into clear 384-well assay plates using a MULTIDROP™ Combi reagent dispenser. […] The cultures described above were centrifuged and washed with media lacking TWEEN-20 or oleic and palmitoleic acids.
(§3) After yeast delivery, assay plates were incubated under humidified conditions at 30° C. for 40 h. Yeast growth was monitored by reading the OD600 of each well using a microplate reader (Perkin Elmer EnVision™).
A word on the IC50: it is the concentration that inhibits the measured activity by half. Read a high IC50 as a need for much substance. Turning to `O=C(Nc1cnn(Cc2cnccc2C(F)(F)F)c1)c1cc(-c2ccco2)on1` [Compound 198, 5-(furan-2-yl)-N-(1-{[4-(trifluoromethyl)pyridin-3-yl]methyl}-1H-pyrazol-4-yl)-1,2-oxazole-3-carboxamide], the IC50 is 2300 nM. That is a single-digit micromolar value.
`O=C(Nc1cnn(Cc2cnccc2C(F)(F)F)c1)c1cc(-c2ccc3c(c2)OCO3)on1` [Compound 199, 5-(2H-1,3-benzodioxol-5-yl)-N-(1-{[4-(trifluoromethyl)pyridin-3-yl]methyl}-1H-pyrazol-4-yl)-1,2-oxazole-3-carboxamide] yielded an IC50 of 6000 nM.
Still for that read-out and setting: the figure for `O=C(Nc1cnn(Cc2ccccc2)c1)c1cc(Cl)on1` [Compound 180] is greater than 45000 nM.
Still for that read-out and setting: the figure for `O=C(c1cc(-c2ccccc2)on1)N1CC=C(c2cc(F)ccc2Cl)CC1` [Compound 305] is 90 nM; for `O=C(c1cc(-c2ccc3c(c2)OCO3)on1)N1CCC(c2cccc(F)c2)CC1` [Compound 309, [5-(1,3-benzodioxol-5-yl)isoxazol-3-yl]-[4-(3-fluorophenyl)-1-piperidyl]methanone] it is 1010 nM; for `CN(C)c1cc(C(=O)Nc2cnn(Cc3ccccc3)c2)no1` [Compound 203, N-(1-benzyl-1H-pyrazol-4-yl)-5-(dimethylamino)isoxazole-3-carboxamide] it is 2500 nM.
Same read-out and setting: the figure for `O=C(Nc1cnn(Cc2cnccc2C(F)(F)F)c1)c1cc(-c2ccccc2)on1` [Compound 160, 5-phenyl-N-(1-((4-(trifluoromethyl)pyridin-3-yl)methyl)-1H-pyrazol-4-yl)isoxazole-3-carboxamide] is 2300 nM.
With `O=C(Nc1cnn(Cc2cccc(F)c2)c1)c1cc(Cl)on1` [Compound 105, 5-chloro-N-(1-(3-fluorobenzyl)-1H-pyrazol-4-yl)isoxazole-3-carboxamide], the IC50 was determined as 9100 nM. This IC50 is about 4-fold higher than that of the compound before.
The same measure, in the same setting: the figure for `O=C(Nc1cnn(Cc2cccc(F)c2)c1)c1cc(-c2cncs2)on1` [Compound 69, N-(1-(3-fluorobenzyl)-1H-pyrazol-4-yl)-5-(thiazol-5-yl)isoxazole-3-carboxamide] is 7900 nM.
On the same count and under the same terms, the figure for `O=C(Nc1cnn(Cc2ccccc2)c1)c1cc(N2CCNCC2)on1` [Compound 190] is greater than 45000 nM; for `O=C(Nc1cnn(Cc2cnccc2C(F)(F)F)c1)c1cc(-c2ccncn2)on1` [Compound 200, 5-(pyrimidin-4-yl)-N-(1-((4-(trifluoromethyl)pyridin-3-yl)methyl)-1H-pyrazol-4-yl)isoxazole-3-carboxamide] it is 6300 nM; for `O=C(Nc1cnn(Cc2cccc(F)c2)c1)c1cc(N2CCOCC2)on1` [Compound 101, N-(1-(3-fluorobenzyl)-1H-pyrazol-4-yl)-5-morpholinoisoxazole-3-carboxamide] it is 1200 nM.
Compound `CC(C)c1cc(C(=O)Nc2cnn(Cc3ccccc3)c2)on1` [Compound 158, N-(1-benzyl-1H-pyrazol-4-yl)-3-isopropylisoxazole-5-carboxamide] showed an IC50 of 1800 nM.
`O=C(Nc1cnn(Cc2cnccc2C(F)(F)F)c1)c1noc2c1CCCC2` [Compound 194, N-(1-{[4-(trifluoromethyl)pyridin-3-yl]methyl}-1H-pyrazol-4-yl)-4,5,6,7-tetrahydro-1,2-benzoxazole-3-carboxamide] gave an IC50 of 696 nM. Against the preceding compound, the IC50 is about 2.6-fold lower.

The next assay addresses human SCD1 (Homo sapiens (Human), UniProt O00767). Kind of assay: Yeast growth assay, strain expressing human SCD1 as the sole desaturase (reduced growth as surrogate for SCD inhibition). Format: cell-based. Conditions: yeast with OLE1 deleted expressing human SCD1 from a plasmid; growth read as OD600 after 40 h at 30° C.; top drug concentration 33.3 μM. As to the method: as §1, §2
Compound administration was performed in two separate steps. First, 15 μL of SD-Ura was dispensed into clear 384-well assay plates using a MULTIDROP™ Combi reagent dispenser. […]
as §3
On to `CN(C)c1cc(C(=O)Nc2cnn(Cc3ccccc3)c2)no1` [Compound 203, N-(1-benzyl-1H-pyrazol-4-yl)-5-(dimethylamino)isoxazole-3-carboxamide], for which it took 25 nM to reach half-maximal inhibition (IC50).
